Assay results published in patent publication US8440723B2, “Metformin salts of salicylic acid and its congeners” (priority 2011, dated 2013).

Conditions: measured water solubility of salt compared to documented solubility of salicylic acid / salicylsalicylic acid
Experimental: Measurement of the water solubility of the test compounds is accomplished by using methods well known to those skilled in the art. […] The total volume of the solution is measured.

Q: With “{[Amino(imino)methyl]amino}(dimethylamino)methaniminium salicylate [Example 1]” as the substance, how does the “times more soluble than the parent acid” value read?
A: 415 times
